The source of these data is patent US7973079B2, “Methods and compounds for treating retinol-related diseases” (Revision Therapeutics, Inc., priority 2007, dated 2011).

The test system of this data set is cytochrome P450 isozymes. The data set can be described thus: Cytochrome P450 inhibition profile (panel of six isozymes). It counts as in vitro ADME. The settings on record: compound at 2 μM, FIG. 8. On the procedure: FIG. 8. Cytochrome P450 inhibition profile for test compounds and fenretinide (HPR). A panel of six cytochrome P450 isozymes were screened to explore potential toxicity associated with the test compounds (test compound 2 having the chemical name 3-((2-tert-butyl-4-chlorophenoxy)methyl)cyclohexanecarboxylic acid and test compound 3 having the chemical name 3-((2-tert-butyl-4-chlorophenoxy)methyl)cyclopentanecarboxylic acid) and HPR (present at 2 μM in the assays).

Turning to `CC(C)(C)c1cc(Cl)ccc1OCC1CCCC(C(=O)O)C1` (stereo not shown) [3-((2-tert-butyl-4-chlorophenoxy)methyl)cyclohexanecarboxylic acid], the “inhibition of the cytochrome P450 isozymes” value is recorded as “very little inhibition”.
